Results published in article PMC7525492, “Microtiter plate-based antibody-competition assay to determine binding affinities and plasma/blood stability of CXCR4 ligands” (Scientific Reports, 2020).

Sequences of proteins named here, by UniProt entry; tags and fusion partners are left off.
UniProt P61073, whole entry: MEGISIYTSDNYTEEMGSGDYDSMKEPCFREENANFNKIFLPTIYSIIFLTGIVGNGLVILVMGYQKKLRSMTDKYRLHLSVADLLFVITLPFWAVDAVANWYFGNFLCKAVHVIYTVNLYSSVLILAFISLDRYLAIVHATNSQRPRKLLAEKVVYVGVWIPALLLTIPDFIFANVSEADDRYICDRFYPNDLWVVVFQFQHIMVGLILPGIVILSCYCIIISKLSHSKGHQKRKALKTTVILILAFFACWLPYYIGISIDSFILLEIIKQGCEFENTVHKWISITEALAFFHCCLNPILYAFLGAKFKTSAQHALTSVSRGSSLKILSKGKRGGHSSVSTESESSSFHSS

Molecular target: CXCR4 (Homo sapiens, UniProt P61073)
Assay: 12G5 antibody competition assay on SupT1 cells
Format: binding
Protocol: Compounds were serially diluted in ice cold PBS and 12G5-APC antibody was diluted in cold PBS containing 1% FCS. […] Plates were incubated at 4 °C in the dark for 2 h. Afterwards cells were washed twice by centrifugation with PBS containing 1% FCS and fixed with 2% paraformaldehyde (PFA). During all pipetting steps, plates were kept cool by using a cooling pad. Antibody binding was analyzed by flow cytometry (FACS CytoFLEX; Beckman Coulter) by determination of the mean fluorescence intensity (MFI) of at least 5.000 cells (50.000 cells per well) or 1.000 cells (5.000 cells per well).
Ki calculation3 Ki=IC50/1+L/Kd
For Ki = inhibitory constant; IC50 = half maximal inhibition for 12G5 binding; [L] = 12G5 concentration; Kd = dissociation constant of 12G5.
Statistical analysis was performed in GraphPad Prism (version 8.3.0). IC50 and IC90 curves and the areas under the curves (AUC) were determined by nonlinear regression.

For `NCCCCN(Cc1nc2ccccc2[nH]1)[C@H]1CCCc2cccnc21` [AMD070], the IC50 (SupT1 cells, APC-labelled 12G5, 2 h at 4 °C, mean ± SEM of 3 assays) was 37 ± 15 nM and the Ki (calculated from IC50 12G5 by Cheng-Prusoff, Kd of 12G5 151.5 pM) was 14 ± 6 nM.
